Activity change, negative = inhibition data for ten compounds are collected here from PubChem BioAssay (NCATS).

Amino acid sequences for entries named in this document (tags omitted).
UniProt P08659, whole entry: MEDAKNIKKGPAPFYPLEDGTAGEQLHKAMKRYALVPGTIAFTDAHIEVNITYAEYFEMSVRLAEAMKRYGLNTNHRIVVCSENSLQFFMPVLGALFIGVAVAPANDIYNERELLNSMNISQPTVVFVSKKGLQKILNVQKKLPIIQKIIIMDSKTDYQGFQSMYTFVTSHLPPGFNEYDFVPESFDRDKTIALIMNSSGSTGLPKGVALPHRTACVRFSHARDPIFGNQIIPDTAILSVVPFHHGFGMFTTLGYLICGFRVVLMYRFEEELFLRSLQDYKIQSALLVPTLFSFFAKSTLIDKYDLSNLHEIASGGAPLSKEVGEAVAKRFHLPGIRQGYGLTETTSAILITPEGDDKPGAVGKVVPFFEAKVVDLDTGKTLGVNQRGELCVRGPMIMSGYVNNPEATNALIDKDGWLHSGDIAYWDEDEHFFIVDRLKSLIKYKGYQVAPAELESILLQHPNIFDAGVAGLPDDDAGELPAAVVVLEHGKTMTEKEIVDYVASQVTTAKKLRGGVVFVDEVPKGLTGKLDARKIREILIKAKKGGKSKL

Molecules are shown by their SMILES. The list shows a part of the results, in another mix than the full data. Records with an inconclusive call do not appear. The source made the active and inactive calls. Calls come from the whole dose curve; as a rule, active = well fitted inhibition curve with a large enough effect; inconclusive = small, poorly fitted or top-dose-only effect; inactive = flat fitted curve, though single readings scatter.

One assay has as its target Luciferin 4-monooxygenase (Photinus pyralis) (UniProt P08659). The experiment in a line: Biochemical firefly luciferase enzyme assay for NPC (AID 624030).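 Note: 0% = DMSO and -100% = full luciferase inhibition by PTC124 control; nearly all actives have a fitted effect of over 70% in size.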 The following applies: purified P. pyralis luciferase, luminescence, 5 min; at 24.9 µM (top of the series). The source says: Charcot-Marie-Tooth-Association [CMTA] National Center for Advancing Translational Sciences [NCATS] Charcot-Marie-Tooth (CMT) disease was first characterized by Jean-Martin Charcot and Pierre Marie in France and, independently, by Howard Henry Tooth in England in 1886. CMT is one of the most common inherited neurological diseases, affecting approximately 1 in 2,500 Americans. […] The most prevalent type of CMT is known as CMT1A and caused by a duplication of the PMP22 gene which leads to over-expression of this protein. PMP22 is a glycosylated intrinsic membrane protein accounting for 2-5% of the myelin protein content, and its over-expression results in demyelination and subsequently axonal loss. A pair of cellular transcription-based assays was developed in the S16 rat Schwann cell lines (Hai, M., et al., 2002) stably transfected with orthogonal reporters - firefly luciferase (Fluc) and beta-lactamase (beta-Lac) - whose expression is driven by an intronic regulatory element of the PMP22 gene (Jones, E.A., et al., 2011) to recapitulate endogenous expression of PMP22. A comprehensive library of approved drugs, the NCGC Pharmaceutical Collection (Huang, R., et al., 2011), was screened in the cross-validating platform of the orthogonal reporter assays to identify drug modulators inhibitory towards PMP22 expression. A set of counter-screens was devised to address non-specific activity of the library. An ATP-dependent CellTiter-Glo assay (developed by Promega Corp) was utilized to control cell viability. In addition, biochemical Fluc enzyme assay was performed to assess direct inhibition of the Fluc enzymatic activity. References Hai, M., Muja, N., DeVries, G.H., Quarles, R.H. and Patel, P.I. Comparative analysis of Schwann cell lines as model systems for myelin gene transcription studies. J Neurosci Res, 2002. 69(4): pp 497-508 Huang, R., Southall, N., Wang, Y., Yasgar A., Shinn P., Jadhav, A. , Nguyen, D.-T. and Austin, C.P., The NCGC pharmaceutical collection: a comprehensive resource of clinically approved drugs enabling repurposing and chemical genomics. Sci Transl Med, 2011. 3(80): p. 80ps16.
Compounds were transferred to the plates in 23nl, and one microliter/well luciferase enzyme-buffer solution (10 nM P. pyralis luciferase and 50 mM Tris Acetate final concentrations) was dispensed yielding a final reaction volume of […]. Luciferase luminescence was measured by a ViewLux plate reader within 5 minutes of enzyme-buffer addition. The % activity was determined by normalizing to the average readings of PTC124 (a positive control) relative to DMSO (0% Activity). The concentration-effect curves were then classified based on curve quality (r2), response magnitude and degree of measured activity.
Regarding `C/C1=C2N=C(/C=C3N=C(/C(C)=C4\[N-][C@@](C)([C@H]5N=C1[C@@](C)(CCC(=O)NC[C@H](C)OP(=O)([O-])O[C@@H]1[C@H](O)[C@H](n6cnc7cc(C)c(C)cc76)O[C@@H]1CO)[C@@H]5CC(N)=O)[C@](C)(CC(N)=O)[C@H]4CCC(N)=O)[C@@](C)(CC(N)=O)[C@@H]\3CCC(N)=O)C(C)(C)[C@@H]/2CCC(N)=O.[C-]#N.[Co+3]`, the activity change, negative = inhibition was inactive: -2.69%.

The assay is the same for the next values; noted with them: purified P. pyralis luciferase, luminescence, 5 min; at 58.6 µM (top of the series).
For the compound `O=[N+]([O-])OCC(CO[N+](=O)[O-])(CO[N+](=O)[O-])CO[N+](=O)[O-]`, the activity change, negative = inhibition was inactive: 13%.
The same measure, in the same setting: the figure for `CC(C)N(CCCl)C(C)C` is inactive: -3.89%; for `CN(C)CCS` it is inactive: -0.921%.
On the same count and under the same terms, then `CCOP(=O)(CC)Oc1ccc([N+](=O)[O-])cc1` (stereo unspecified), with inactive: -5.96%; and `CC(C)OP(=O)(F)OC(C)C`, with inactive: 3.54%; and `O=[N+]([O-])[O-].[NH4+]`, with inactive: 4.38%.
Still for that read-out and setting: the figure for `O=[N+]([O-])c1cccc([N+](=O)[O-])c1` is inactive: 11.9%; for `OCCSCCO` it is inactive: 5.09%.

The assay is the same for the next values; noted with them: purified P. pyralis luciferase, luminescence, 5 min; at 123 µM (top of the series).
Take `Cc1cccc([N+](=O)[O-])c1[N+](=O)[O-]`: the activity change, negative = inhibition is inactive: -13.5%.
With `O=[N+]([O-])c1cccc([N+](=O)[O-])c1`, the activity change, negative = inhibition is inactive: -2.42%.
